Results taken from US20240082272A1, “COMPOSITIONS AND METHODS FOR TREATING WNT-DRIVEN CANCER” (The Regents of the University of Michigan, priority 2020, published 2024).

System: subcutaneous, immunodeficient xenograft model of adrenal cancer
Assay: Subcutaneous xenograft model of adrenal cancer
Assay type: in vivo, mouse
Conditions: 200 mg/kg PO daily
Experimental: To test if disruption of SF1/β-catenin complexes in vivo can cause dedifferentiation (Example 1 and 2) and disrupt tumor growth, the impact of EZH2 inhibition on a xenograft model derived from the Borges et al. Oncogene 2020 genetically engineered mouse model detailed in FIG. 25 was assayed.

SMILES: CCN(c1cc(-c2ccc(CN3CCOCC3)cc2)cc(C(=O)NCc2c(C)cc(C)[nH]c2=O)c1C)C1CCOCC1 [EPZ-6438]
- EZH2/β-catenin complexes (PLA signal) (PLA): retention of off chromatin EZH2/β-catenin
- proliferation rate (Ki67 index) (immunohistochemistry, compared to vehicle): decreases
